Reference: ChEMBL document CHEMBL4364301 (Eur J Med Chem, 2019)

How the values were obtained:
Type in all cases: functional
DU-145 = test: Antiproliferative activity against human DU145 cells assessed as reduction in cell growth incubated for 96 hrs by propidium iodide based 2D monolayer assay
Method in brief: (§1)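 After 24 h recovery, compound in medium or medium alone (control wells) was added at 10 half-log concentrations from 0.0032 to 100 µM, in triplicate, with at most 0.3% DMSO. After 96 h, wells were PBS-washed, stained with 7 µg/ml PI and 0.1% Triton X-100, and fluorescence read at 530/620 nm. IC50 came from a 4-parameter fit, geometric mean.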

CWR22R = test: Antiproliferative activity against human 22Rv1 cells assessed as reduction in cell growth incubated for 96 hrs by propidium iodide based 2D monolayer assay; method in brief: as §1
LNCaP = test: Antiproliferative activity against human LNCAP cells assessed as reduction in cell growth incubated for 96 hrs by propidium iodide based 2D monolayer assay; method in brief: as §1
VCaP = test: Antiproliferative activity against human VCaP cells assessed as reduction in cell growth incubated for 96 hrs by propidium iodide based 2D monolayer assay
Method in brief: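 VCaP cells in RPMI 1640 with 10% FCS at 37 °C, 5% CO2, seeded 4,000–20,000 cells/well and left 24 h before dosing. Compounds from DMSO stocks were diluted in half-log steps in medium, 10 concentrations 0.0032–100 μM, triplicate wells, max 0.3% DMSO. After 96 h, cells were washed, stained with 7 μg/ml propidium iodide plus 0.1% Triton X-100 for 1–2 h at room temperature, and fluorescence read at ex 530/em 620 nm.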

Measured: Activity

CC(O)(COc1cccc(S(F)(F)(F)(F)F)c1)C(=O)Nc1cccc(S(F)(F)(F)(F)F)c1 (racemic)
active: DU-145 = Dose-dependent effect | CWR22R Dose-dependent effect | LNCaP Dose-dependent effect | VCaP Dose-dependent effect

CNC(=O)c1ccc(N2C(=S)N(c3ccc(S(F)(F)(F)(F)F)cc3)C(=O)C2(C)C)cc1F
active: DU-145 = Dose-dependent effect | CWR22R Dose-dependent effect | LNCaP Dose-dependent effect | VCaP Dose-dependent effect

CC(O)(COc1cccc(S(F)(F)(F)(F)F)c1)C(=O)Nc1ccc(C#N)c(C(F)(F)F)c1 (racemic)
active: DU-145 = Dose-dependent effect | CWR22R Dose-dependent effect | LNCaP Dose-dependent effect | VCaP Dose-dependent effect

CC(O)(COc1cccc(OC(F)(F)F)c1)C(=O)Nc1cccc(S(F)(F)(F)(F)F)c1 (racemic)
active: DU-145 = Dose-dependent effect | CWR22R Dose-dependent effect | LNCaP Dose-dependent effect | VCaP Dose-dependent effect

CC(O)(CSc1ccc(OC(F)(F)F)cc1)C(=O)Nc1cccc(S(F)(F)(F)(F)F)c1 (racemic)
active: DU-145 = Dose-dependent effect | CWR22R Dose-dependent effect | LNCaP Dose-dependent effect | VCaP Dose-dependent effect

CC(O)(CSc1ccccc1C(F)(F)F)C(=O)Nc1ccc(S(F)(F)(F)(F)F)cc1 (racemic)
active: DU-145 = Dose-dependent effect | CWR22R Dose-dependent effect | LNCaP Dose-dependent effect | VCaP Dose-dependent effect

CC1(C)C(=O)N(c2ccc([N+](=O)[O-])c(C(F)(F)F)c2)C(=S)N1c1ccc(S(F)(F)(F)(F)F)cc1
active: DU-145 = Dose-dependent effect | CWR22R Dose-dependent effect | LNCaP Dose-dependent effect | VCaP Dose-dependent effect

CC(O)(COc1ccccc1OC(F)(F)F)C(=O)Nc1ccc(S(F)(F)(F)(F)F)cc1 (racemic)
active: DU-145 = Dose-dependent effect | CWR22R Dose-dependent effect | LNCaP Dose-dependent effect | VCaP Dose-dependent effect

CC1(C)C(=O)N(c2ccc(C#N)cc2C(F)(F)F)C(=S)N1c1ccc(S(F)(F)(F)(F)F)cc1
active: DU-145 = Dose-dependent effect | CWR22R Dose-dependent effect | LNCaP Dose-dependent effect | VCaP Dose-dependent effect

CC(O)(CS(=O)(=O)c1ccc(S(F)(F)(F)(F)F)cc1)C(=O)Nc1ccc([N+](=O)[O-])c(C(F)(F)F)c1 (racemic)
active: DU-145 = Dose-dependent effect | CWR22R Dose-dependent effect | LNCaP Dose-dependent effect | VCaP Dose-dependent effect

CC(O)(CSc1ccc(S(F)(F)(F)(F)F)cc1)C(=O)Nc1ccc([N+](=O)[O-])c(C(F)(F)F)c1 (racemic)
active: DU-145 = Dose-dependent effect | CWR22R Dose-dependent effect | LNCaP Dose-dependent effect | VCaP Dose-dependent effect

CC(O)(CS(=O)(=O)c1ccc(S(F)(F)(F)(F)F)cc1)C(=O)Nc1ccc([N+](=O)[O-])cc1C(F)(F)F (racemic)
active: DU-145 = Dose-dependent effect | CWR22R Dose-dependent effect | LNCaP Dose-dependent effect | VCaP Dose-dependent effect

CC(O)(COc1ccc(C#N)cc1C(F)(F)F)C(=O)Nc1cccc(S(F)(F)(F)(F)F)c1 (racemic)
active: DU-145 = Dose-dependent effect | CWR22R Dose-dependent effect | LNCaP Dose-dependent effect | VCaP Dose-dependent effect

CC(O)(CS(=O)(=O)c1ccccc1OC(F)(F)F)C(=O)Nc1ccc(S(F)(F)(F)(F)F)cc1 (racemic)
active: DU-145 = Dose-dependent effect | CWR22R Dose-dependent effect | LNCaP Dose-dependent effect | VCaP Dose-dependent effect

CC(O)(CSc1ccc(S(F)(F)(F)(F)F)cc1)C(=O)Nc1cccc(S(F)(F)(F)(F)F)c1 (racemic)
active: DU-145 = Dose-dependent effect | CWR22R Dose-dependent effect | LNCaP Dose-dependent effect | VCaP Dose-dependent effect

CC1(C)C(=O)N(c2ccc(S(F)(F)(F)(F)F)cc2)C(=S)N1c1cccc(C(F)(F)F)c1
active: DU-145 = Dose-dependent effect | CWR22R Dose-dependent effect | LNCaP Dose-dependent effect | VCaP Dose-dependent effect

CC1(C)C(=O)N(c2cccc(S(F)(F)(F)(F)F)c2)C(=S)N1c1cccc(C(F)(F)F)c1
active: DU-145 = Dose-dependent effect | CWR22R Dose-dependent effect | LNCaP Dose-dependent effect | VCaP Dose-dependent effect

CC(O)(CS(=O)(=O)c1ccc(OC(F)(F)F)cc1)C(=O)Nc1ccc(S(F)(F)(F)(F)F)cc1 (racemic)
active: DU-145 = Dose-dependent effect | CWR22R Dose-dependent effect | LNCaP Dose-dependent effect | VCaP Dose-dependent effect

CC(O)(CS(=O)(=O)c1ccc(S(F)(F)(F)(F)F)cc1)C(=O)Nc1cccc(S(F)(F)(F)(F)F)c1 (racemic)
active: DU-145 = Dose-dependent effect | CWR22R Dose-dependent effect | LNCaP Dose-dependent effect | VCaP Dose-dependent effect

CC(O)(COc1cccc(S(F)(F)(F)(F)F)c1)C(=O)Nc1ccc(C(F)(F)F)cc1 (racemic)
active: DU-145 = Dose-dependent effect | CWR22R Dose-dependent effect | LNCaP Dose-dependent effect | VCaP Dose-dependent effect

CC(O)(COc1ccc(C#N)cc1C(F)(F)F)C(=O)Nc1ccc(S(F)(F)(F)(F)F)cc1 (racemic)
active: DU-145 = Dose-dependent effect | CWR22R Dose-dependent effect | LNCaP Dose-dependent effect | VCaP Dose-dependent effect

CC(O)(COc1cccc(S(F)(F)(F)(F)F)c1)C(=O)Nc1cc(C(F)(F)F)cc(C(F)(F)F)c1 (racemic)
active: DU-145 = Dose-dependent effect | CWR22R Dose-dependent effect | LNCaP Dose-dependent effect | VCaP Dose-dependent effect

CC(O)(COc1cccc(S(F)(F)(F)(F)F)c1)C(=O)Nc1ccc([N+](=O)[O-])c(C(F)(F)F)c1 (racemic)
active: DU-145 = Dose-dependent effect | CWR22R Dose-dependent effect | LNCaP Dose-dependent effect | VCaP Dose-dependent effect

CC(O)(COc1ccccc1C(F)(F)F)C(=O)Nc1cccc(S(F)(F)(F)(F)F)c1 (racemic)
active: DU-145 = Dose-dependent effect | CWR22R Dose-dependent effect | LNCaP Dose-dependent effect | VCaP Dose-dependent effect

CC(O)(CS(=O)(=O)c1ccc(S(F)(F)(F)(F)F)cc1)C(=O)Nc1ccc(S(F)(F)(F)(F)F)cc1 (racemic)
active: DU-145 = Dose-dependent effect | CWR22R Dose-dependent effect | LNCaP Dose-dependent effect | VCaP Dose-dependent effect

CC(O)(COc1ccc(S(F)(F)(F)(F)F)cc1)C(=O)Nc1ccc(C(F)(F)F)cc1 (racemic)
active: DU-145 = Dose-dependent effect | CWR22R Dose-dependent effect | LNCaP Dose-dependent effect | VCaP Dose-dependent effect
